Source: PMC5396026 (Chemical Research in Toxicology, 2016)

By UniProt entry, the sequences of proteins in these tests, tags left out. Where a name states a change or a piece, a line headed by the entry shows the natural chain unless it says otherwise.
UniProt P10275: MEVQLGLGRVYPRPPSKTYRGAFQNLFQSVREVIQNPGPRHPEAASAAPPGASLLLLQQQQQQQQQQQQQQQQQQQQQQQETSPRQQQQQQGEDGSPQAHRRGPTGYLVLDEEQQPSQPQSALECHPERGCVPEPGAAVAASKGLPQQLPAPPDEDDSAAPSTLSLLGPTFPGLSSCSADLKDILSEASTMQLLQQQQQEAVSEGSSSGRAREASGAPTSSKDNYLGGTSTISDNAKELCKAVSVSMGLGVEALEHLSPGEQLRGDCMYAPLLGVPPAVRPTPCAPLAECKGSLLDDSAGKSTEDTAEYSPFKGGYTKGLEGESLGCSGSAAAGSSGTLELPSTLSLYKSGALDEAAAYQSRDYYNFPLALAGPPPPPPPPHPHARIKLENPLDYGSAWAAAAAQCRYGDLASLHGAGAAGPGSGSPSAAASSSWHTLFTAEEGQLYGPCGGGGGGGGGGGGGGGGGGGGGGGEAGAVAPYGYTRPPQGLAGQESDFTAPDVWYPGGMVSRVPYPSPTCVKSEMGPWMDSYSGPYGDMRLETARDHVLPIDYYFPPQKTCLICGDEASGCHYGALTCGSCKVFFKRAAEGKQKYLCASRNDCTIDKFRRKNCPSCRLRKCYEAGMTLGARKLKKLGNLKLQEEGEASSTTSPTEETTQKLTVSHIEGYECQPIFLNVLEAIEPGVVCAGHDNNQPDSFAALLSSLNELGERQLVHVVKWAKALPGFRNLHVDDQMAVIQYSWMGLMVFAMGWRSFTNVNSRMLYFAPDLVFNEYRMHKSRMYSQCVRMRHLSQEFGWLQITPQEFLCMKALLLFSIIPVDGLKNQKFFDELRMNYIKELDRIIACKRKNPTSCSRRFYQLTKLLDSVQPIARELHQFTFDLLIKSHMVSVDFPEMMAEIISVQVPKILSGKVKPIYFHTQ

Target: AR (Homo sapiens, UniProt P10275)
Conditions: AC50 at 10 nM vs 0.5 nM R1881, 95% confidence intervals

SMILES | potency shift in antagonist confirmation assay
CCN(CC)CCOc1ccc(C(=C(Cl)c2ccccc2)c2ccccc2)cc1 [clomiphene citrate] | shift in the correct direction but with overlapping confidence intervals
CCCC1COC(Cn2cncn2)(c2ccc(Cl)cc2Cl)O1 (centres unmarked) [propiconazole] | significant shifts in the correct direction

Where a name gives a salt, the structure may show the parent alone.
